Values of other authors, collected in article PMC8247773, “Benzohydrazide and Phenylacetamide Scaffolds: New Putative ParE Inhibitors” (Frontiers in Bioengineering and Biotechnology, 2021).

System: Bacillus subtilis (NCIM 2545)
Conditions: ref Yele et al., 2020, 2021; cited from earlier work

Structure (SMILES): COc1ccc(NNC(=O)CSc2nc3ccccc3s2)cc1
- Minimum inhibitory concentration (MIC) B. s: 1.96
